From PubChem BioAssay AID631 (The Scripps Research Institute Molecular Screening Center, 2007)
Only a part is listed here, and it is no random draw. Calls of active or inactive are those of the source. No stated cut-off is given here; in the data, active means activation above about 19%; inactive means the rest.

By UniProt entry, the sequences of proteins in these tests, tags left out. Where a name states a change or a piece, a line headed by the entry shows the natural chain unless it says otherwise.
UniProt P37231: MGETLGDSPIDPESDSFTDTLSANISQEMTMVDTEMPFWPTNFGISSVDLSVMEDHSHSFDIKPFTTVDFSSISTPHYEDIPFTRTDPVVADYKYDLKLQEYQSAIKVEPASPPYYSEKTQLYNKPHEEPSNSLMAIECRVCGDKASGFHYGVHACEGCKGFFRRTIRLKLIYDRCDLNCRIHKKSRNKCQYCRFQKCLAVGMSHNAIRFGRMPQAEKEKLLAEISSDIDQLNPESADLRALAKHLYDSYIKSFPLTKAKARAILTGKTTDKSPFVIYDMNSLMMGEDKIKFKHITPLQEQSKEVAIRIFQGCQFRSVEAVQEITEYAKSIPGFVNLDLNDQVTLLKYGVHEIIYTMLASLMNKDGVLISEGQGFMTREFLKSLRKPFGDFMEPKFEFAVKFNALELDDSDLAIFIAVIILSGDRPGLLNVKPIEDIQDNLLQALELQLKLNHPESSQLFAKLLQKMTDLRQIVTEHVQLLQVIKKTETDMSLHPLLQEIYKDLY

target: Peroxisome proliferator-activated receptor gamma (Homo sapiens) (UniProt P37231); experiment: PPARgamma agonists recruiting SRC-1 coactivator, primary screen, biochemical (AID 631); conditions: PPARgamma-SRC-1 coactivator recruitment biochemical assay; at 8 µM; active compounds read high;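 further: 0% = DMSO and 100% = reference agonist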

SMILES | activation
CC(C)C(=O)NC(Sc1ccccc1)C(Cl)(Cl)Cl (stereo not given) | inactive: 0.9%
O=P(Nc1nccs1)(c1ccccc1)c1ccccc1 | inactive: 5.7%
c1nnnn1CCn1cnnn1 | inactive: -0.9%
CC(=O)NC(SC(=S)N(C)C)C(Cl)(Cl)Cl (stereo not given) | inactive: -5.3%
O=C(OC1CN2CCC1CC2)c1cccc(Cl)c1 (stereo not given) | inactive: 4.6%
C(Cc1nn[nH]n1)Cc1nn[nH]n1 | inactive: 6.6%
O=P(Nc1ccccn1)(c1ccc(Br)cc1)c1ccc(Br)cc1 | inactive: 5.3%
CCC(=O)N1C2C3N(C(=O)CC)C1C1N(C(=O)CC)C(C(N1C(=O)CC)N3C(=O)CC)N2C(=O)CC | inactive: 1.5%
COC(=O)c1cc2c(s1)N=C(c1ccccc1)N(C)P2(=O)N1CCOCC1 (stereo not given) | inactive: 2%
CC(=O)NC(SC(=S)N(CC(C)C)CC(C)C)C(Cl)(Cl)Cl (stereo not given) | inactive: 3.4%
Cc1ccc(OP(=O)(Nc2ccccn2)Oc2ccc(C)cc2)cc1 | inactive: -7.6%
O=c1c2cc([N+](=O)[O-])ccc2[nH]c2c([N+](=O)[O-])cc([N+](=O)[O-])cc12 | inactive: 0.8%
c1ccc(-c2nn[nH]n2)c(-c2nn[nH]n2)c1 | inactive: 2.7%
CCOC(=O)NC(Sc1ccccc1)C(Cl)(Cl)Cl (stereo not given) | inactive: 1%
CCNC(=S)/N=C(\N)N[N+](=O)[O-] | inactive: 1.6%
O=C(NC1CCS(=O)(=O)C1)NP(=S)(Oc1ccccc1)Oc1ccccc1 (stereo not given) | inactive: 12.5%
CC(=O)Nc1ccc(Oc2c([N+](=O)[O-])cc([N+](=O)[O-])cc2[N+](=O)[O-])cc1 | inactive: -3.5%
O=P1(Nc2nc3ccc(Cl)cc3s2)COc2ccccc2O1 (stereo not given) | inactive: -0.6%
CCOc1ccc(C2=NCC(CBr)S2)cc1 (stereo not given) | inactive: 5.4%
CC(C)(C)C(=O)NC(Sc1ccccc1)C(Cl)(Cl)Cl (stereo not given) | inactive: -2.5%
Oc1ccccc1CNc1ccccn1 | inactive: 1.6%
O=C(NC(Sc1ccncn1)C(Cl)(Cl)Cl)c1ccccc1 (stereo not given) | inactive: -0.2%
Cc1c2non([O-])c-2c(C)[n+](=O)[n+]1[O-] | inactive: 5.1%
CC(C)CC(=O)NC(Sc1ccc(Cl)cc1)C(Cl)(Cl)Cl (stereo not given) | inactive: -4.1%
Cc1ccc(N/C(=N/P(=O)(N2CCOCC2)N2CCOCC2)N2CCOCC2)cc1 | inactive: -0.1%
NC(=O)c1cc([N+](=O)[O-])cc([N+](=O)[O-])c1N | inactive: 0.4%
CN1CCCC(OC(=O)C(c2ccccc2)c2ccccc2)C1 (stereo not given) | inactive: 10.2%

SMILES | activation
Clc1ccc(Cl)c(NC2=NCC(CBr)S2)c1 (stereo not given) | inactive: 8.2%
COc1ccccc1OP(=O)(Nc1ccc(C)cn1)Oc1ccccc1OC | inactive: 12.9%
CCN(N=Nc1nonc1N)c1nonc1N | inactive: -0.2%
Cc1cc(SC(NC(=O)c2ccc(F)cc2)C(Cl)(Cl)Cl)ncn1 (stereo not given) | inactive: -0.1%
CCOP(=O)(Nc1ccccc1)OCC | inactive: 2.8%
O=[N+]([O-])c1ncn(CCn2ncnc2[N+](=O)[O-])n1 | inactive: -0.5%
CCN(/C(=N/P(=O)(N1CCOCC1)N1CCOCC1)N1CCOCC1)c1ccc(OC)cc1 | inactive: -0.5%
CC1CCN(C(=O)Oc2c(Cl)cc(Cl)c3cccnc23)CC1 | inactive: 4.7%
CC(C)=N/N=C(\N)N[N+](=O)[O-] | inactive: -2.6%
CN(C)C(=O)OCCc1n(C)cc[n+]1C | inactive: -8.8%
COc1ccc(C2=NCC(CBr)S2)cc1 (stereo not given) | inactive: -3.5%
Cc1ccc(NP(=O)(Oc2ccccc2)Oc2ccccc2)nc1 | inactive: -9.7%
CCc1nc2c(n1)c1c(non1O)c1c2no[n+]1[O-] | inactive: 1.6%
O=[N+]([O-])c1cc([N+](=O)[O-])c(CCNc2ccccc2)c([N+](=O)[O-])c1 | inactive: 5.1%
O=[N+]([O-])c1cccc2n[nH]nc12 | inactive: 8.8%
CC(=O)N1C2C3N(C(C)=O)C1C1N(C(C)=O)C(C(N1C(C)=O)N3C(C)=O)N2C(C)=O | inactive: 0.3%
CCC(C)N(CC(C)C)C(=S)SC(NC(C)=O)C(Cl)(Cl)Cl (stereo not given) | inactive: 7.1%
COP1(=S)c2c(C)nn(CCC#N)c2N=C(c2ccc(F)cc2)N1C (stereo not given) | inactive: 2.6%
O=C(COc1ccccc1)OC1CN2CCC1CC2 (stereo not given) | inactive: -0.4%
O=P(Nc1ccccn1)(c1cccc2ccccc12)c1cccc2ccccc12 | inactive: 3.7%
Cc1cc(SC(NC=O)C(Cl)(Cl)Cl)ncn1 (stereo not given) | inactive: 9.5%
Cc1cc(SC(NC(=O)c2ccccc2)C(Cl)(Cl)Cl)nc(C(C)C)n1 (stereo not given) | inactive: 3.5%
ClCCSc1nnc(-c2cccnc2)o1 | inactive: 3.6%
CC(C)NC(=O)NP(=O)(Oc1ccccc1)Oc1ccccc1 | inactive: 15.5%
CCN(CC)C(=S)SC(NC=O)C(Cl)(Cl)Cl (stereo not given) | inactive: -3.7%
O=[N+]([O-])c1cc([N+](=O)[O-])c(-c2ccn[nH]2)s1 | inactive: 9.3%
Cc1ccc2nc3c(c(C)c2c1)CC(C(Cl)Cl)S3 (stereo not given) | inactive: 2.1%

SMILES | activation
COc1ccc(N/C(=N/P(=O)(N2CCOCC2)N2CCOCC2)N2CCOCC2)cc1 | inactive: 4.3%
Cc1c2c(nc3ccccc13)SC(C(Cl)Cl)C2 (stereo not given) | inactive: 6.7%
O=C(OC1CN2CCC1CC2)C12CC3CC(CC(C3)C1)C2 (stereo not given) | inactive: -0.3%
Cc1cc(=O)[nH]c(N[N+](=O)[O-])n1 | inactive: 4.4%
COc1ccc2nc(NP(=O)(c3ccccc3)c3ccccc3)sc2c1 | inactive: -1.2%
Cc1ccc(NCCc2c([N+](=O)[O-])cc([N+](=O)[O-])cc2[N+](=O)[O-])cc1 | inactive: 5.3%
COc1cc(C2NCCC3(OCCO3)C2(C)C)cc(OC)c1OC (stereo not given) | inactive: 3.9%
CCOP(=O)(Nc1cccc2ccccc12)OCC | inactive: -0.2%
COc1cc(C(=O)NCC2(N3CCOCC3)CCCCC2)cc(Cl)c1OC(C)C | inactive: 10%
Cc1cccc(OCC(=O)OC2CN3CCC2CC3)c1 (stereo not given) | inactive: -4.6%
CCOP1(=S)c2c(C)nn(CCC#N)c2N=C(c2ccc(F)cc2)N1C (stereo not given) | inactive: -4.9%
O=[N+]([O-])c1ccc2c(c1)nnn2O | inactive: -2.9%
CCOP1(=S)c2c(C)nn(CCC#N)c2N=C(c2ccccc2F)N1C (stereo not given) | inactive: -2.7%
O=P(Nc1nccs1)(Oc1ccccc1)Oc1ccccc1 | inactive: 1.6%
O=P(Nc1nccs1)(c1ccccc1)c1nc2ccccc2s1 (stereo not given) | inactive: 6.7%
O=P1(Nc2ncccn2)COc2ccccc2OC1 | inactive: 4.1%
Cc1ccc(OCC(=O)OC2CN3CCC2CC3)cc1 (stereo not given) | inactive: 5.4%
O=P1(Nc2ccc(Br)cn2)COc2ccccc2OC1 | inactive: -0.1%
Cc1nn(-c2ccccc2)c2c1P(=O)(N1CCOCC1)N(C)C(c1ccccc1)=N2 (stereo not given) | inactive: 0.8%
CC1CCC(C(C)C)C(OP(=O)(Nc2ccccn2)c2ccccc2)C1 (stereo not given) | inactive: 0.2%
CN(C)C1(CNC(=O)c2ccc(S(C)(=O)=O)cc2)CCCCC1 | inactive: 2.4%
CC(C)/C=N\N=C(\N)N[N+](=O)[O-] | inactive: 3.3%
CN(C(=O)Cc1ccc(Cl)c(Cl)c1)[C@@H]1CCCC[C@H]1N1CCCC1 | inactive: -7.7%
CC1(CBr)Cn2c(nc3ccccc3c2=O)S1 (stereo not given) | inactive: 5.9%
O=P1(Nc2ccccn2)COc2ccccc2OC1 | inactive: 9.8%
Clc1n[nH]nc1-c1nn[nH][15n]1 | inactive: 5.6%
